The nature of the series: DSSTox (CPDBAS) Carcinogenic Potency Database Summary MultiCellCall Results. The conditions noted are these: animal carcinogenicity bioassays, multi-cell call summary. The text has this:
The Carcinogenic Potency Database (CPDB) is a unique and widely used international resource of the results of over 6500 chronic, long-term animal cancer tests on over 1500 chemical substances. The CPDB provides easy access to the bioassay literature, with qualitative and quantitative analyses of both positive and negative experiments that have been published over the past 50 years in the general literature and by the National Cancer Institute/National Toxicology Program. The CPDB standardizes the diverse literature of cancer bioassays that vary widely in protocol, histopathological examination and nomenclature, and in the published author's choices of what information to provide in their papers. Results are reported in the CPDB for tests in rats, mice, hamsters, dogs, and nonhuman primates, and are based on the most positive result among all experiments for each sex-species. The DSSTox CPDBAS (all species) file incorporates data from the CPDB Summary Tables for the full list of over 1500 chemical substances tested in at least one species. A summary MultiCellCall, based on experimental bioassay results of one or more species, is provided in the DSSTox CPDBAS file (see Source URL) for more than 1150 chemical substances. […]

Active and inactive are the calls of the source.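 How the source made its calls: active means tumour findings in long-term animal cancer tests in more than one sex, species or organ; inactive means no tumour finding and more than one negative test.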

With `O=[N+]([O-])C(Cl)(Cl)Cl`, the outcome was “inactive; multisex inactive”.
